## Ab-14 heavy chain CDR variants: yeast mating affinities

Reference: Engelhart et al. 2022, doi:10.1038/s41597-022-01779-4. File: FLAb, binding data.

The target is the same throughout: PDVDLGDISGINAS, from the HR2 region of SARS-CoV-2 spike.

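AAYL49 was designed without a model: most single CDR substitutions and a random sample of double and triple ones. In AlphaSeq, yeast of one mating type display the scFv and yeast of the other type display the target. Pairs that bind mate more often; barcode pairs of the diploids are counted by sequencing. The ratio of observed to expected reads was calibrated, replicate by replicate, on BCL2-family standards whose Kd was known from biolayer interferometry. There are three technical replicates.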

The variants keep the light chain, the linker and the frameworks of Ab-14 (scFv order VH, the linker GGGGSGGGGSGGGGS, VL).
VH: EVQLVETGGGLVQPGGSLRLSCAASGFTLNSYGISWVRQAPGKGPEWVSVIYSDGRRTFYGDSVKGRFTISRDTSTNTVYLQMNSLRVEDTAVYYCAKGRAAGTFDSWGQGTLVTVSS
VL: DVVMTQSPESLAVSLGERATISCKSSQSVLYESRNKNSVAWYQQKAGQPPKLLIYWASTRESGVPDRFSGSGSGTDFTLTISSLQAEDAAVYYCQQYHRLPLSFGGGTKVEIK

Each variant is given by its three heavy chain CDRs, as the data file delimits them; those of the parent are GFTLNSYGIS, VIYSDGRRTFYGDSVK, GRAAGTFDS. This list gathers variants with a substitution at S53 (VH, numbered from residue 1). Numbers give log10(Kd / nM), so 0 is 1 nM and 3 is 1 µM. Smaller is tighter. Averages over replicates are reported, and they cover detected replicates only. Where no diploid with the target was found in any replicate, the entry reads "nd": below detection, most likely a poor binder, though not proof of it. Empty control strains, which show no peptide, gave a signal in 15% of pairings with library AAYL49; the median was 4.06 and 95% of these signals were weaker than 2.83. No background was subtracted. For each scFv, signals with the empty controls are counted beside the result.

Variant GFTLNSPGIS | VIYNDGRRTFYGDSVK | GRAAGTFDS gave nd (0 of 3 replicates; controls 0 of 9).
Variant GFTLNSQGIS | VIYKDGRRTFYGDSVK | GRAAGTFDS gave nd (0 of 3 replicates; controls 4 of 9).
Variant GFTLNSYGGS | VIYQDGRRTFYGDSVK | GRPAGTFDS gave 5.56 (2 of 3 replicates; controls 6 of 9).
Variant GFTLNSYGIS | VIYLDGRRTFYGDSVK | LRAAGTFMS gave nd (0 of 3 replicates; controls 0 of 9).
Variant GFTVNSYGIS | VIYMDGRRTFYGDSVK | GRAAGTFDS gave 3.58 (1 of 3 replicates; controls 3 of 9).
Variant GFTLNSYGIS | VIYRDGRRTFYGDSVK | GRAWGTFDS gave 4.26 (1 of 3 replicates; controls 1 of 9).
Variant GFTLCSYGIS | VIYDDGRRTFYGDSVP | GRAAGTFDS gave 4.78 (1 of 3 replicates; controls 1 of 9).
Variant GFTLNSYGIS | VIYLDGRRTFYGDSVK | GRAAGTFDS gave 3.54 (2 of 3 replicates; controls 2 of 9).
Variant GFTLNSYGIS | VIYLDGRMTFYGDSVK | VRAAGTFDS gave nd (0 of 3 replicates; controls 0 of 9).
Variant GFTSNSYGIS | VIYIDGRRTFYGDSVK | GRQAGTFDS gave nd (0 of 3 replicates; controls 2 of 9).
Variant GFTLNSYGIS | VIYEDGFRTFYGDVVK | GRAAGTFDS gave nd (0 of 3 replicates; controls 0 of 9).
Variant GFTLNSYGIS | VIYNDGRRTFYIDSVG | GRAAGTFDS gave nd (0 of 3 replicates; controls 1 of 9).
Variant GFTLNSYGIS | VIYPDGRRTFYGDSPK | GIAAGTFDS gave 3.99 (1 of 3 replicates; controls 2 of 9).
Variant GFTLNSYGIS | VIYKDGRRIFYGDSVV | GRAAGTFDS gave 3.64 (1 of 3 replicates; controls 2 of 9).
Variant GFTLNSYGIS | VIYWRGRRTFYGDSVK | GRAFGTFDS gave 3.75 (1 of 3 replicates; controls 1 of 9).
Variant GFTLNSWGIS | VIYHDGRRTFYGDSVK | GRAAYTFDS gave 4.20 (1 of 3 replicates; controls 1 of 9).
Variant GFTLNSYGIN | VIYQDGRRTYYGDSVK | GRAAGTFDS gave nd (0 of 3 replicates; controls 0 of 9).
Variant GFTLNSYGIS | VIYVDGRRTFYGGSVK | GRAAATFDS gave 4.34 (2 of 3 replicates; controls 4 of 9).
Variant GFTLNSYGIS | VIYCDGRRTFYKDSVK | GRAAGTFRS gave 5.78 (1 of 3 replicates; controls 4 of 9).
Variant GFTLNSYGIS | HIYIDGRRTFYGDSVK | GRAALTFDS gave 4.68 (2 of 3 replicates; controls 7 of 9).
Variant GFTLNSYGIS | VIYNDGRRTFYGDSVK | HRAAITFDS gave 4.62 (1 of 3 replicates; controls 2 of 9).
Variant GFTLNSYGIS | VIYHDGRRTFYGDSVK | GRNAGTQDS gave 2.71 (3 of 3 replicates; controls 0 of 9).
Variant GFTLNSYGIS | VIYQDGRRTFYGDSVK | GRTAGTFDS gave nd (0 of 3 replicates; controls 0 of 9).
Variant GFTLNSYGIS | VIYLDGRQTEYGDSVK | GRAAGTFDS gave 4.70 (3 of 3 replicates; controls 5 of 9).
Variant GFYLNSYGTS | VIYKDGRRTFYGDSVK | GRAAGTFDS gave nd (0 of 3 replicates; controls 0 of 9).
Variant GFTLNSYGIS | VIYDDGIRTFYEDSVK | GRAAGTFDS gave nd (0 of 3 replicates; controls 0 of 9).
Variant GFTLNSYGIS | RIYQDGRRTFYGDSVK | GRAAGTFKS gave 4.98 (1 of 3 replicates; controls 1 of 9).
Variant GFTLNSYGIY | VIGWDGRRTFYGDSVK | GRAAGTFDS gave 5.33 (1 of 3 replicates; controls 2 of 9).
Variant GFTLNSYGIS | VIYPDGRRMFYGDSVK | GRAAGTDDS gave nd (0 of 3 replicates; controls 0 of 9).
Variant GFTLNSYGES | VIYVDGRRTFYGDSVK | GRAAGTFTS gave 4.67 (1 of 3 replicates; controls 0 of 9).
Variant GFTLNSYGIS | VIYMDGRRTFYGDSVK | GRAAGTFDS gave nd (0 of 3 replicates; controls 3 of 9).
Variant GFTLNSYGIM | VIYGDGRRTFYGDSVK | GRAAQTFDS gave nd (0 of 3 replicates; controls 0 of 9).
Variant GFTLNSYGIS | AIYEDGRRNFYGDSVK | GRAAGTFDS gave nd (0 of 3 replicates; controls 0 of 9).
Variant GFTLNSYGIS | VIYDDGRRTFYGDSVK | GNAAGTFDS gave 3.53 (1 of 3 replicates; controls 1 of 9).
Variant GFTLNSYGIS | VIYDDGRRTFYGRSVK | GRAAGTFAS gave nd (0 of 3 replicates; controls 0 of 9).

The 2 strongest on average among those seen in every replicate, once more:

CDR-H1,CDR-H2,CDR-H3,"mean, log10 nM",replicates with signal,signal with controls
GFTLNSYGIS,VIYHDGRRTFYGDSVK,GRNAGTQDS,2.71,3 of 3,0 of 9
GFTLNSYGIS,VIYLDGRQTEYGDSVK,GRAAGTFDS,4.70,3 of 3,5 of 9